Experimental data reported in patent publication US10150760B2, “Compounds for use in preparing heterocyclic triazole agonists of the APJ receptor” (AMGEN INC., priority 2016, dated 2018).

Amino acid sequences for entries named in this document (tags omitted). A change or cut given only in a name is not applied to a line headed by its entry.
UniProt P35414: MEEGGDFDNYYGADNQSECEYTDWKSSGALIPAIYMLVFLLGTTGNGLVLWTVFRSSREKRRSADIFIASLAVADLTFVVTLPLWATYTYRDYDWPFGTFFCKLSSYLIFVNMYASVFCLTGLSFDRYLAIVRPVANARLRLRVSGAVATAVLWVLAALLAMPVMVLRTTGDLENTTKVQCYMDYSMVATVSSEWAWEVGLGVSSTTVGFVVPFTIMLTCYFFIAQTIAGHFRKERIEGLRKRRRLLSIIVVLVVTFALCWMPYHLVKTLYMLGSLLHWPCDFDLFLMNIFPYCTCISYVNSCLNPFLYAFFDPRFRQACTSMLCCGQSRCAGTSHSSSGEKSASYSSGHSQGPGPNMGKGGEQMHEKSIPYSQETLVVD

Target: human APJ-AT1R (angiotensin Type 1) double stable CHO cell line (Homo sapiens (Human), UniProt P30556+P35414)
Details: APJ small molecule agonists plus AngII

## CCCCc1nc(Cl)c(CO)n1Cc1ccc(-c2ccccc2-c2nn[nH]n2)cc1 [losartan]
  effect of losartan on APJ agonist-induced cooperativity in the presence of AngII: relieved this cooperativity
